Laboratory results as given in patent US20200138907A1, “Composition for Use in the Treatment of an Individual Suffering a Condition Necessitating New Bone Formation” (priority 2016, published 2020).

Assays:
[1] = system: rabbits; test: BMP-2 induced bone formation in subcutaneously implanted BCP constructs, biomembrane pocket model; format: in vivo, rabbit; settings: 1.5 μg BMP-2 alone (control group), subcutaneous, 12 weeks
Protocol: First, an assessment study was performed to verify the potential for ectopic bone formation in the biomembrane pocket model. Established constructs for ectopic bone formation, i.e. porous BCP scaffolds loaded with MSCs or BMP-2, were implanted intramuscularly and subcutaneously in rats (n=4) and rabbits (n=4), inside and outside the biomembrane pockets. The bone volume (area%) in the BCP constructs was the primary outcome after 8 (rats) or 12 (rabbits) weeks. Subsequently, the rabbit model (n=11) was used to 1) screen for the potential of inflammatory stimuli to induce bone intramuscularly and to 2) screen for the effects of inflammatory stimuli on BMP-induced bone formation subcutaneously. The bone volume (area%) in the BCP constructs was the primary outcome after 12 weeks.
For the comparative study (Table 2), inflammatory stimuli were added to the BCP, alone or in combination with BMP-2. Either 1.5 μg of BMP-2 or PBS (15 μl volume) was first applied. Fibrin glue (Tissucol 500®, Baxter, Deerfield, Ill., USA) was subsequently used (55 μl volume) to load the inflammatory mediators onto the constructs. […]
After shaving and disinfecting the skin with 10% povidone-iodine, a midline incision was made to expose the paraspinal muscles. […] The incorporation of fluorochromes in the bone was examined by fluorescence microscopy on methyl methacrylate-embedded sections. […]

[2] = system: rats; test: ectopic bone formation in BMP-2 loaded BCP blocks implanted subcutaneously in rats (Table 3); format: in vivo, rat; settings: 15 μg/ml BMP-2 alone, subcutaneous, 8 weeks
Protocol: S. aureus (Wood 46) were cultured to mid-log phase in LB medium. The bacteria were stored overnight in PBS at 4° C. and gamma-irradiated at 25 kGy (Isotron Nederland, Ede, The Netherlands). Their inactivation was confirmed by culture on agar plates. The bacteria were stored at −80° C. in PBS supplemented with 20% glycerol until the day of implantation.
Biphasic calcium phosphate (BCP) blocks were made with dimensions of 3.5×3.5×3 mm. […] The BCP blocks were autoclaved at 121° C. for 30 min and dried at 60° C. A volume of 35 μl was seeded onto the BCP blocks with a final concentration of bacteria of 2×10^6-2×10^10 CFU/ml. In half of the samples, BMP-2 was added at a final concentration of 15 μg/ml. Samples were stored at 4° C. until implantation.
8 male Fischer rats (14 weeks old, 300-350 g, F344/IcoCrl, Charles River) were used for the experiment. All animals were housed at the Central Laboratory Animal Institute, Utrecht University. They were allowed to acclimatize for at least two weeks before the surgery. Food and water were given ad libitum. The rats received 3% isoflurane during surgery. […]
The material was fixed in 4% paraformaldehyde, dehydrated by an ethanol series and embedded in methyl methacrylate (MMA, Merck Millipore). […] The samples were completely sectioned and scored for the presence of bone.

B1: BMP-2: recombinant human BMP-2 (InductOS, Wyeth/Pfizer) (protein, UniProt P12643 283-396, looked up)
Bone morphogenetic protein 2: QAKHKQRKRLKSSCKRHPLYVDFSDVGWNDWIVAPPGYHAFYCHGECPFPLADHLNSTNHAIVQTLVNSVNSKIPKACCVPTELSAISMLYLDENEKVVLKNYQDMVVEGCGCR
bone area % [1]: 5.7±5.3 area % | No. rats with bone [2]: 1/7
